Experimental findings from publication PMC3988174 are described below.

Amino acid sequences for entries named in this document (tags omitted). Residues count along the entry.
UniProt O81283, 728-1092: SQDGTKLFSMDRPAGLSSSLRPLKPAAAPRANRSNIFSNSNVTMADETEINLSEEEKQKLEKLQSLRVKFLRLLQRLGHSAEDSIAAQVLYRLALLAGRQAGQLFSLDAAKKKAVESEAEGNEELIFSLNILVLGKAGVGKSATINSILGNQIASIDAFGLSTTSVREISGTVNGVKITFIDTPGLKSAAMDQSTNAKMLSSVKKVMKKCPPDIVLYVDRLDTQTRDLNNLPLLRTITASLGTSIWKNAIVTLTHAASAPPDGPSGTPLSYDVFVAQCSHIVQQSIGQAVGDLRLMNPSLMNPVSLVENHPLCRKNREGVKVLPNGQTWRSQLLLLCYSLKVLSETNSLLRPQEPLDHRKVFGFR

The target of this test is atToc159 G-domain bait (Arabidopsis thaliana) (UniProt O81283). In words: two-hybrid; pairwise split-ubiquitin yeast two-hybrid of isolated NubG-preys with Toc159G, Toc132G or Toc132AG bait in NMY51; growth on SD-LWHA (3-AT) and quantitative β-Gal assay, activity relative to a reference bait set to 100%.

As to “Light Harvesting Complex Of Photosystem II 5 (from UniProt Q9XF89 1-280) (natural protein)”, the % increase in strength of interaction (β-Gal) with Toc159G against Toc132G came out at 21%.

Turning to “RuBisCO small subunit 3B (from UniProt P10798 1-181) (natural protein)”, the % decrease in strength of interaction (β-Gal) with Toc159G against Toc132G is -7.84%.

“Light harvesting complex photosystem II (from UniProt Q07473 1-290) (natural protein)” returned a % increase in strength of interaction (β-Gal) with Toc159G against Toc132G of 23%.
